Reference: patent US7700657B2, “Vitamin D analogs” (Galderma Research & Development, priority 2001, dated 2010)

Amino acid sequences for entries named in this document (tags omitted).
UniProt P11473, whole entry: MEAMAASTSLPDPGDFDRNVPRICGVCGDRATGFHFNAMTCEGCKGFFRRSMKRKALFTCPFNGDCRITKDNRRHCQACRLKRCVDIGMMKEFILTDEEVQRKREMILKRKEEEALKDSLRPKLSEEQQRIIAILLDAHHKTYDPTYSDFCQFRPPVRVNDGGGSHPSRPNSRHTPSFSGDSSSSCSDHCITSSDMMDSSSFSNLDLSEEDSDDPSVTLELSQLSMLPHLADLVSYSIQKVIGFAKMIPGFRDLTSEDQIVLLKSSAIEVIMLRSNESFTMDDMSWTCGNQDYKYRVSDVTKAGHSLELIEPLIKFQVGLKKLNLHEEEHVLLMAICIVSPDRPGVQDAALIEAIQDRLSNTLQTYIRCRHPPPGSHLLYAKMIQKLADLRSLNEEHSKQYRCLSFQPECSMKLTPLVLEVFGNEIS

What was measured:
[1] = tested on: normal human keratinocytes; test: Inhibition of proliferation of normal human keratinocytes (BrdU incorporation); details: read-out: INHIBITION OF PROLIFERATION IC50, 5 days culture
Description: The biological properties analogous to vitamin D can likewise be measured by the capacity of the product to inhibit the proliferation of normal human keratinocytes (NHK in culture). The product is added to NHK cultured under conditions favoring the proliferative state. The product is left in contact with the cells for five days. The number of proliferative cells is measured by incorporation of bromodeoxyuridine (BRdU) into the DNA. The protocol of this test as well as the results obtained with the compounds according to the invention are described in example 8 of the present application.
It is known that 1,25-dihydroxyvitamin D3, called calcitriol and corresponding to natural vitamin D, inhibits the proliferation of human keratinocytes in culture. The method used is the following: the normal human keratinocytes are inoculated at low density into a 24-well plate. After 4 hours, the compounds to be tested are added to the culture medium. After culturing for 5 days, the proliferation of the keratinocytes is determined by incorporation of 5-bromo-2′ deoxyuridine (BrdU) in the DNA. The quantity of BrdU incorporated is then quantified by using the Elisa test (Enzyme Linked Immuno Sorbent Essay, test marketed by Roche Molecular Biochemicals). […]

human VDR receptor = human VDR receptor (Homo sapiens, UniProt P11473); test: Transactivation potential: VDR agonist activity, HeLa cotransfection with p240Hase-CAT reporter; details: dose giving 50% of maximum activity, HeLa cells, 18 hours treatment
Excerpt: By way of example, the VDR agonist activity can be tested on the HeLa cell line by cotransfection of an expression vector for the human VDR receptor and of the reporter plasmid p240Hase-CAT. The agonist activity can be characterized in this cotransfection system by the determination of the dose necessary to obtain 50% of the maximum activity of the product (AC50). The detail of the protocol of this test as well as the results obtained with the compounds according to the invention are described in example 7 of the present application.
The VDR agonist activity can be tested on the HeLa cell line, by cotransfection of an expression vector of the human VDR receptor and of the p240Hase-CAT reporter plasmid which contains the region −1399 to +76 of the rat 24-hydroxylase promoter, cloned upstream of the phase coding for the chloramphenicol acetyltransferase (CAT) gene. 18 hours after cotransfection, the test product is added to the medium. After treatment for 18 hours, the measurement of the CAT activity of the cell lysates is carried out by means of an Elisa test (Enzyme Linked Immuno Sorbent Essay, test marketed by Roche Molecular Biochemicals). The agonist activity can be characterized in this cotransfection system by the determination of the dose necessary in order to obtain 50% of the maximum activity of the product (AC50).

[2] = tested on: HL60 promyelocytic leukemia cells; test: Induction of differentiation of HL60 cells (NBT reduction); details: read-out: Activation of Differentiation AC 50, 4 days culture, NBT-positive cells
Excerpt: The biological properties analogous to vitamin D can likewise be measured by the capacity of the product to induce the differentiation of HL60 promyelocytic leukemia cells. The protocol of this test as well as the results obtained with the compounds according to the invention are described in example 9 of the present application.
Calcitriol induces the differentiation of promyelocytic leukemia cells (HL60) in monocytes/macrophages. This differentiation inductor effect is a well-characterized marker of cellular vitamin D activity. One of the most important antimicrobial products of macrophages is hydrogen peroxide, which can be analyzed experimentally by the reduction of NBT (Nitroblue Tetrazolium).
The method used is the following: The HL60 cells are inoculated into 6-well plates and then treated immediately with the compounds to be tested. After 4 days in culture, the cells are incubated with phorbol TPA ester and NBT for a short period and the differentiated cells, i.e., positive to NBT, are counted.

AC50 (human VDR receptor) [nM]	Compound	IC50 [1] [nM]	AC50 [2] [nM]
319	C/C(=C\C=C\C(C)(C)O)c1cccc(CCc2ccc(CO)c(CO)c2)c1	1510	–
79	CC/C(=C\C=C\C(O)(CC)CC)c1cc(OCc2ccc(CO)c(CO)c2)ccc1C	99	–
746	CCC(O)(C#C/C=C(\C)c1cccc(OCc2ccc(CO)c(CO)c2)c1)CC	–	–
124	CCC(O)(/C=C/C=C(\C)c1cccc(CCc2ccc(CO)c(CO)c2)c1)CC	–	310
